Where “and” joins values, the source holds several entries; their conditions need not be identical. Identical values can stand only once. The entries are a selection whose mix differs from that of the whole data set. Inconclusive results are not listed. Calls of active or inactive are those of the source. Calls follow the shape of the dose curve; as a rule, active = well fitted inhibition curve with a large enough effect; inconclusive = small, poorly fitted or top-dose-only effect, or another doubt; inactive = no such curve, though single readings can be large or run the other way.
target: Histone acetyltransferase KAT2A (Homo sapiens) (UniProt Q92830); experiment: qHTS Assay for Inhibitors of GCN5L2; settings: GCN5L2 HAT assay, ThioGlo1 CoA-SH fluorescence; at 58.9 µM (top of the series)
% is scaled to controls: 0 for no effect and ±100 for the full control effect.

The chains behind the UniProt entries cited, without tags or fusion partners.
UniProt Q92830, whole entry: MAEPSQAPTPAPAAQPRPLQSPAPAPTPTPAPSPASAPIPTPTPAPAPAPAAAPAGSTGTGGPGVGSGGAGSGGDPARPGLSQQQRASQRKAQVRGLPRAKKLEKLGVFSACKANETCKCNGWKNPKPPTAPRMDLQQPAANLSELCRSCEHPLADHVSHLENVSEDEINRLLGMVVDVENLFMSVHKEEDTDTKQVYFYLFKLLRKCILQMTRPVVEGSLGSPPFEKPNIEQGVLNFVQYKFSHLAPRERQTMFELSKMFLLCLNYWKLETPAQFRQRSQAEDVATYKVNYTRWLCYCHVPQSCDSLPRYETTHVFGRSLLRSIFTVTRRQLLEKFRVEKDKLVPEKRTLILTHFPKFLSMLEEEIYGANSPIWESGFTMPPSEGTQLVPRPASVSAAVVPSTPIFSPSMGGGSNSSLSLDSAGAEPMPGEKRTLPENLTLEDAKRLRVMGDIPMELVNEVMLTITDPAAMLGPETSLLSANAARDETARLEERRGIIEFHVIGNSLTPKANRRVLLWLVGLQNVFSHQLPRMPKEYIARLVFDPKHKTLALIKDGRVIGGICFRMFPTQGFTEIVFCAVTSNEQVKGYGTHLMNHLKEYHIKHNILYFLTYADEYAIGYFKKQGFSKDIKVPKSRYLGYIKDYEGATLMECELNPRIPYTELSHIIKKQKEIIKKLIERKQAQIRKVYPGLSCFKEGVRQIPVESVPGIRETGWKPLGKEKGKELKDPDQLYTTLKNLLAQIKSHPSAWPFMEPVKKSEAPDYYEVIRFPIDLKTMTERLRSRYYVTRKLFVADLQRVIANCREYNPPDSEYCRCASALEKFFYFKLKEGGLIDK

SMILES | activity change, negative = inhibition
CCC(=O)N(c1ccccc1)C1(COC)CCN(CCn2nnn(CC)c2=O)CC1 | inactive: -1.08%
CCC(=O)N(c1ccccc1)C1(COC)CCN(CCc2cccs2)CC1 | inactive: -2.35%
CN(CCCl)CCCl | inactive: -11.4% and inactive: 4.24%

Reference: PubChem BioAssay AID504327 (National Center for Advancing Translational Sciences (NCATS), 2011)
